Legend:
E. coli Endo IV = target: T1, E. coli Endo IV (Escherichia coli, UniProt P0A6C1); test: E. coli Endo IV profiling counterscreen; format: biochemical; conditions: read-out: EndoIV IC50;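 further: selectivity counterscreen of candidate APE1 inhibitors against the bacterial endonuclease Endo IV, run in the same assay format as the primary APE1 high-throughput screen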
T1 construct: made in house

[1] = target: double-stranded 17-mer DNA fragment; test: ThO (Thiazole Orange) DNA displacement assay; conditions: read-out: ThO-DNA binding IC50;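 further: miniaturized displacement of the intercalating dye from unlabeled duplex DNA, used to flag nonspecific DNA binders, chiefly intercalators, groove binders may be missed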

Compound	IC50 (E. coli Endo IV) [µM]	IC50 [1] [µM]
CC(=O)Nc1sc2c(c1-c1nc3ccccc3s1)CCN(C(C)C)C2 [MLS000419194]	12.6	
Cc1ccc2c(=O)c3ccccc3n(CCCN)c2c1C [NCGC00161415]	12.6	
Cc1c2c(c(O)c3c(O)cccc13)C(=O)O[C@H]2C1C(N(C)C)C(O)=C(C(N)=O)C(=O)[C@H]1O (stereo partly shown) [NCGC00163605]		12.6
phthalocyanine tetrasulfonate hydrate [NCGC00165867]	1.6	
